Test results: ChEMBL document CHEMBL1121693 (1981)

Assays:
Mus musculus [1] = experiment: Number of deaths occurred after intraperitoneal administration of Compound at a dose of 512 umol/kg; total no. of mice tested is 5
Mus musculus [2] = experiment: Ataxia produced in mice by intraperitoneal administration of compound at a dose of 262 umol/kg; total no. of mice tested is 5
Mus musculus [3] = experiment: Ataxia produced in mice by intraperitoneal administration of compound at a dose of 410 umol/kg; total no. of mice tested is 4
Mus musculus [4] = experiment: Ataxia produced in mice by intraperitoneal administration of compound at a dose of 410 umol/kg; total no. of mice tested is 5
Mus musculus [5] = experiment: Ataxia produced in mice by intraperitoneal administration of compound at a dose of 512 umol/kg; total no. of mice tested is 1
Mus musculus [6] = experiment: Number of deaths occurred after intraperitoneal administration of Compound at a dose of 262 umol/kg; total no. of mice tested is 5
Mus musculus [7] = experiment: Number of deaths occurred after intraperitoneal administration of Compound at a dose of 328 umol/kg; total no. of mice tested is 5
Mus musculus [8] = experiment: Number of deaths occurred after intraperitoneal administration of Compound at a dose of 410 umol/kg; total no. of mice tested is 5
Mus musculus [9] = experiment: Ataxia produced in mice by intraperitoneal administration of compound at a dose of 328 umol/kg; total no. of mice tested is 5
Mus musculus [10] = experiment: Ataxia produced in mice by intraperitoneal administration of compound at a dose of 410 umol/kg; total no. of mice tested is 3
Mus musculus [11] = experiment: Ataxia produced in mice by intraperitoneal administration of compound at a dose of 512 umol/kg; total no. of mice tested is 0

Compound	No. of mice (Mus musculus [1])	No. of mice (Mus musculus [2])	No. of mice (Mus musculus [3])	No. of mice (Mus musculus [4])	No. of mice (Mus musculus [5])	No. of mice (Mus musculus [6])	No. of mice (Mus musculus [7])	No. of mice (Mus musculus [8])	No. of mice (Mus musculus [9])	No. of mice (Mus musculus [10])	No. of mice (Mus musculus [11])
O[C@H]1CC[C@](c2ccccc2)(N2CCCCC2)CC1	0	0	3	4	1	0	0	0			
O[C@H]1CC[C@@](c2ccccc2)(N2CCCCC2)CC1	5	1				0	0	0	3	2	0
